This series can be described thus: Cell toxicity (CC50) in the HepG2 cell line, CellTiter-Glo. The settings on record: human, ATP luminescence, compound from screened library. It is filed as cell-based. Background: Cellular ATP, detected with luciferase, serves as a proxy for viable cell number.

Usually CC50 stands for the concentration giving 50% cytotoxicity. Consider `Oc1c(Cl)cc(Cl)c(Cl)c1Cc1c(O)c(Cl)cc(Cl)c1Cl` [Hexachlorophene], for which the CC50 at 24 h was 71.4 µM.

Values taken from publication PMC3039689, “Identification of Small Molecule Lead Compounds for Visceral Leishmaniasis Using a Novel Ex Vivo Splenic Explant Model System” (PLoS Neglected Tropical Diseases, 2011).
